Values quoted from earlier work in publication PMC10952301, “Solid‐Phase Synthesis and Biological Evaluation of Peptides ADP‐Ribosylated at Histidine” (Angewandte Chemie (International Ed. in English), 2023).

Details: quoted without reference to compare leaving group capacity

pKa: 14.5
SMILES: c1c[nH]cn1 [imidazole]
